{"source": "paper PMC4580323", "about": "“^18F-FP-PEG2-β-Glu-RGD2: A Symmetric Integrin αvβ3-Targeting Radiotracer for Tumor PET Imaging” (PLoS ONE, 2015)", "tested_on": "C6 brain glioma", "conditions": "rat, in vivo"}
{"substance": "^18F-FDG", "values": [{"measurement": "uptake ratio of glioma tissue to gray matter", "value": "1.45 ± 0.21", "unit": "%ID/g"}, {"measurement": "uptake ratio of glioma tissue to white matter", "value": "2.24 ± 0.42", "unit": "%ID/g"}]}
